The nature of series [1]: Oral PK of hydrocodone conjugates in rats (plasma hydrocodone, hydromorphone, intact conjugate by LC-MS/MS).
A short description of series [2]: Water solubility / feasibility of intravenous administration.

As to nicotinate-hydrocodone [Nicotinate-HC], in series [1] (equivalent to 2 mg/kg hydrocodone freebase), the “hydrocodone and hydromorphone plasma concentrations compared with Hydrocodone.BT” value is given as “below the respective concentrations”. Also, the “hydrocodone and hydromorphone AUC values compared with Hydrocodone.BT” value in series [1] (same dose based on hydrocodone freebase) is “within the range of bioequivalence”. Also, in series [2], the “solubility in water (intravenous administration at oral equivalent doses)” value was “hydrophobic”.

The record behind these values is patent publication US20200038383A1, “IMMEDIATE-RELEASE ABUSE DETERRENT CO[…] MEDICAMENTS FOR TREATING PAIN, ADD, ADHD AND OTHER SYNDROMES OR DISORDERS” (KEMPHARM, INC., priority 2016, published 2020).
